The values below are quoted from earlier work in PMC3046303.

Chains of the proteins cited; added tags and fusions are not shown. Residues count along the entry.
UniProt P02708, 21-457: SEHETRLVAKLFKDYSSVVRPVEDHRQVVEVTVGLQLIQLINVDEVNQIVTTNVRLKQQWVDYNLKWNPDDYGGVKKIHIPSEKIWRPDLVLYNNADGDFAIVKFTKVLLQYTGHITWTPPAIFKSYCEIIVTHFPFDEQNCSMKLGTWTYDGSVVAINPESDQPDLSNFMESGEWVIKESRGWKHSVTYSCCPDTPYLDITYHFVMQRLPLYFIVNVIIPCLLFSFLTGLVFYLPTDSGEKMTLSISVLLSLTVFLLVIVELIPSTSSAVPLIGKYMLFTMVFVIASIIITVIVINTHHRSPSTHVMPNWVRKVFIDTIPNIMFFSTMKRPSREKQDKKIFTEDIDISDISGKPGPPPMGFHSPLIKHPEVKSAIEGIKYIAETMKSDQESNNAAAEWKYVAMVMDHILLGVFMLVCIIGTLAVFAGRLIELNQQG

One may read the Kd as the equilibrium constant for the complex coming apart.

The target in this data set is acetylcholine receptor (AChR) (Homo sapiens) (UniProt P02708).

As to “alpha-bungarotoxin (from UniProt P60615)”, the Kd was 0.26 nM.
